Experimental data published in publication PMC4220732, “The crimson conundrum: heme toxicity and tolerance in GAS” (Frontiers in Cellular and Infection Microbiology, 2014).

The chains behind the UniProt entries cited, without tags or fusion partners.
UniProt Q9A1K6, entry or part of it: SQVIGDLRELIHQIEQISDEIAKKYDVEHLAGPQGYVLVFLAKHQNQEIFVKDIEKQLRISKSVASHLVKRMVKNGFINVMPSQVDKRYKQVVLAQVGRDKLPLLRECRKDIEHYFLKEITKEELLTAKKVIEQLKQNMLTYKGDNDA

Target: PefR (GAS PefR) (Streptococcus pyogenes, UniProt Q9A1K6)
Test: biochemical
Parameters: gene SPy_0228

C=CC1=C(C)C2=Cc3c(C=C)c(C)c4[n]3[Fe]([Cl])[n]3c(c(C)c(CCC(=O)O)c3=CC3=NC(=C4)C(C)=C3CCC(=O)O)=CC1=N2 [heme]
Kd: 10 µM
